ChEMBL document CHEMBL6083281, “Development of a Fluorescence Probe for High-Throughput Screening of Allosteric Inhibitors Targeting TRAP1” (J Med Chem, 2024)

Target: T1, Heat shock protein 75 kDa, mitochondrial (Homo sapiens) (UniProt Q12931)
T1 sequence (whole entry): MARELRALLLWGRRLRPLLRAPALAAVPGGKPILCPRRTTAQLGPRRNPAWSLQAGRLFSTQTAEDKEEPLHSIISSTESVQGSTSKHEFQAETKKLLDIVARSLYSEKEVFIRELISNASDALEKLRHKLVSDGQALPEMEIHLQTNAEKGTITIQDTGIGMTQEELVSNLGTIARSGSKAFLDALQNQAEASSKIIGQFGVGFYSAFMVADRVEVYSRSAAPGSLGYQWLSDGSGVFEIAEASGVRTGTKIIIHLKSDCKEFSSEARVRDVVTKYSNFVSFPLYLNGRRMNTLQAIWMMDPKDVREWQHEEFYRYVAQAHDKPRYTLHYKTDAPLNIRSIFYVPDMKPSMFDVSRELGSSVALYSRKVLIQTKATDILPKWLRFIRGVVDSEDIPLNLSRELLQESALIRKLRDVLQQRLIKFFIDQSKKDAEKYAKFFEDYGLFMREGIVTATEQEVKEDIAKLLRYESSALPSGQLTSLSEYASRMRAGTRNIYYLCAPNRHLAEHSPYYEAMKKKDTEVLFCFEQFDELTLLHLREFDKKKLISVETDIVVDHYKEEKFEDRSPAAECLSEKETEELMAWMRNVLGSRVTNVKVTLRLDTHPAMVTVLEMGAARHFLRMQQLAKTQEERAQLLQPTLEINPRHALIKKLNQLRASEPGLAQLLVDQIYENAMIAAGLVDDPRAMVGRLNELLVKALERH
Details: dose 100.0 nM, time 2.0 hrs

| Bmax (millipolarization) | SMILES |
| --- | --- |
| 203 | CN(CCCCCCCC[P+](c1ccccc1)(c1ccccc1)c1ccccc1)C(=O)c1ccccc1C1=c2cc3c4c(c2Oc2c1cc1c5c2CCCN5CCC1)CCC[N+]=4CCC3 |
| 201 | CN(CCCCCC[P+](c1ccccc1)(c1ccccc1)c1ccccc1)C(=O)c1ccccc1C1=c2cc3c4c(c2Oc2c1cc1c5c2CCCN5CCC1)CCC[N+]=4CCC3 |
| 101 | CCN(CC)c1ccc2c(-c3ccccc3C(=O)N(C)CCCCCC[P+](c3ccccc3)(c3ccccc3)c3ccccc3)c3ccc(=[N+](CC)CC)cc-3oc2c1 |
| 326 | CCN(CC)c1ccc2c(-c3ccccc3C(=O)N(C)CCCCCCCC[P+](c3ccccc3)(c3ccccc3)c3ccccc3)c3ccc(=[N+](CC)CC)cc-3oc2c1 |
